Changes are numbered by the printed parent chain. Values belong to the binder of their own block, whether it stands above or below them.
Experiments:
HER2 [1] = target: T1, HER2 (human, UniProt P04626); experiment: BLI, 30C, ExpiCHO-expressed
HER2 [2] = target: T1, HER2; experiment: BLI, 30C, E. coli-expressed
HER2 [3] = target: T1, HER2; experiment: BLI, 30C, E. coli-expressed, bivalent analysis

B2: HL_SSC (antibody, V domains shown)
VH: not shown
VL: DIQMTQSPSSLSASVGDRVTITCRASQDVNTAVCWYQQKPGKAPKLLIYSASFLYSGVPSRFSGSRSGTDFTLTISSLQPEDFATYYCQQHYTTPPTFGQGTKVEIKR
Kd (HER2 [1]): < 0.001 nM
Kd (HER2 [2]): 0.145 nM

B3: LH_SSC (antibody, V domains shown)
VH: not shown
VL: B2 VL
Kd (HER2 [3]): 1.3 nM
Kd (HER2 [1]): 0.661 nM

Further lines, results first:

Kd (HER2 [1]): < 0.001 nM
B1: HL_SS+ (antibody, V domains shown)
VH: [not shown - about 120 residues]
VL: B2 VL with C34A, Q100C

Kd (HER2 [1]): < 0.001 nM
B4: LH_SS+ (antibody, V domains shown)
VH: [not shown - about 120 residues]
VL: B2 VL with C34A, Q100C

From patent US20260327336 (published 2026)
